# PubChem BioAssay AID624256 (NMMLSC, 2012)
# This is a selection; strong and weak results do not stand in their true shares. Some of these compounds have results that are not shown, active ones among them. The source made the active and inactive calls.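 Rule for the calls: active = normalized GFP-positive differentiation at or above the plate's own cutoff, the solvent-only control mean plus 3 SD; inconclusive = no clear call, values can overlap the other calls; inactive = the rest.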
# Assay: induction of myeloid progenitor differentiation, primary screen, cell-based, flow cytometry, MLPCN library (AID 624256)
# Details: ER-HoxA9 myeloid progenitors, lysozyme-GFP differentiation, at 10 µM
row,SMILES,outcome
1,O=C(OC1CN2CCC1CC2)C(CO)(c1ccccc1)c1ccccc1 (stereo not given),inactive
2,C=C(C)C#CC(O)(C(=O)OC1CCN(C)CC1)c1ccccc1 (stereo not given),inactive
3,COc1ccc(Br)c(C(=O)NCC2(N3CCCCC3)CCCCC2)c1,inactive
4,CC(C)Oc1ccc(C(=O)NCC2(N(C)C)CCCCC2)cc1,inactive
5,O=C(OCCN1CCCC1)C(O)(c1ccccc1)c1ccccc1,inactive
6,CN(C)c1cccc(C(=O)NCC2(N(C)C)CCCCC2)c1,inactive
7,CN(C)C1(CNC(=O)c2ccc(Br)cc2)CCCCC1,inactive
8,COc1cc(C(=O)NCC2(N(C)C)CCCCC2)c([N+](=O)[O-])cc1OC,inactive
9,COc1cccc(C(=O)NCC2(N3CCCCC3)CCCCC2)c1,inactive
10,COc1ccc(Cl)cc1C(=O)NCC1(N(C)C)CCCCC1,inactive
11,O=C(NCC1(N2CCCCC2)CCCCC1)c1cccc(Cl)c1,inactive
12,Cc1ccccc1C(=O)NCC1(N2CCCCC2)CCCCC1,inactive
13,CN(C)c1ccc(C(=O)NCC2(N(C)C)CCCCC2)cc1,inactive
14,CN(C)C1CCCC1OC(=O)C(O)(c1ccccc1)c1ccccc1 (stereo not given),inactive
15,C=CCN1CCN(CCOC(=O)C(O)(c2ccccc2)c2ccccc2)CC1,inactive
16,O=C(NCC1(N2CCCCC2)CCCCC1)c1cc(F)c(F)cc1Cl,inactive
17,COc1ccc(C(=O)NCC2(N(C)C)CCCCC2)cc1,inactive
18,CCN1CCCC(OC(=O)C2(O)c3ccccc3C=Cc3ccccc32)C1 (stereo not given),inactive
19,Cc1cc(C(=O)NCC2(N3CCCCC3)CCCCC2)ccc1[N+](=O)[O-],inactive
20,O=C(NCC1(N2CCCCC2)CCCCC1)c1cc([N+](=O)[O-])ccc1Cl,inactive
21,CN1[C@@H]2CC[C@H]1CC(OC(=O)C(O)(c1ccccc1)c1ccccc1)C2 (stereo not given in full),inactive
22,CCN(CC)CC(C)C(C)OC(=O)C(O)(c1ccccc1)c1ccccc1 (stereo not given),inactive
23,COc1cc(SC)ccc1C(=O)NCC1(N(C)C)CCCCC1,inactive
24,CC(C)N1C(=O)CC2(CCN(CCOC(=O)C(O)(c3ccccc3)c3ccccc3)CC2)C1=O,inactive
25,Cc1ccc(C(=O)NCC2(N3CCCCC3)CCCCC2)cc1,inactive
